Test results reported in ChEMBL document CHEMBL5726097, “Combination pharmaceutical compositions and uses thereof” (2019).

Molecular target: T1, Phosphatidylinositol 4,5-bisphosphate 3-kinase catalytic subunit delta isoform (Homo sapiens, UniProt O00329)
T1 sequence (O00329 whole entry): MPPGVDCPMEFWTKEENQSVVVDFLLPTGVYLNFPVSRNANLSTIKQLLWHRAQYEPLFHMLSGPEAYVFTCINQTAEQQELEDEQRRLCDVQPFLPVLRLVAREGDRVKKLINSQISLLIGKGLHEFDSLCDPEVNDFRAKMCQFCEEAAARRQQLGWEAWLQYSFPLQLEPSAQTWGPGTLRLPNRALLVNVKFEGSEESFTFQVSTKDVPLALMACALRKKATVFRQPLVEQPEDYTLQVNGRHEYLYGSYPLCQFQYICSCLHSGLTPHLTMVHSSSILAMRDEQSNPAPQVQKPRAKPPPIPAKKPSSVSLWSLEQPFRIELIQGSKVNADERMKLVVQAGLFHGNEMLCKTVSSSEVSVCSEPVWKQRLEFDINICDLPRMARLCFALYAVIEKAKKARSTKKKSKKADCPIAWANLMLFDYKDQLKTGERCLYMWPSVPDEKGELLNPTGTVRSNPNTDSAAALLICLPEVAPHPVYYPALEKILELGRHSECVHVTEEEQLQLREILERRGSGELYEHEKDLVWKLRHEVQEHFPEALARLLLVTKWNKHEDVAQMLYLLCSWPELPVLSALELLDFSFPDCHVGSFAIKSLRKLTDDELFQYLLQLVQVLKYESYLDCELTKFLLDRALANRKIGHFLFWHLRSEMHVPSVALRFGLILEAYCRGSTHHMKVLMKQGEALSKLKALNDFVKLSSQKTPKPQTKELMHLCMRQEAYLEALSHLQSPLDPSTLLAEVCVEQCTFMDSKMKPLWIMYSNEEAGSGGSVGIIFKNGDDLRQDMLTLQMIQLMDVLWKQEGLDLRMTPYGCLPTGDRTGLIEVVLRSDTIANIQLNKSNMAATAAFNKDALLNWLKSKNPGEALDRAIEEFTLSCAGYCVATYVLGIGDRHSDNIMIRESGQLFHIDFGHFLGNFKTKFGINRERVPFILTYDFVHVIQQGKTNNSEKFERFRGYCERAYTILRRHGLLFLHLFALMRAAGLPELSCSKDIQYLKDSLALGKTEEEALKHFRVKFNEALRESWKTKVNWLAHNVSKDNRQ

IC50: < 1 µM
Structure (SMILES): Nc1nc2cc(-c3nn(C4CC(O)C4)c4ncnc(N)c34)ccc2o1 (stereo unspecified)
